PubChem AID 2061109: pyroptosis screen in mouse bone marrow macrophages, one dose (5 µM).
Target pathway: NLRP3 inflammasome, triggered by LPS and nigericin. Dead cells counted by propidium iodide.
Higher is more protection: 100% equals untreated cells, 0% the stimulated control, negative values set to 0. Active call (*): above 70%. Part of the library is listed.

{"SMILES": "O=C1NC(=O)/C(=C/c2ccc(-c3ccc(F)cc3O)o2)S1", "inhibition (%)": "61.2"}
{"SMILES": "CN(C)CCN(Cc1ccc(-c2ccc(CNCCc3ccccc3)cc2)cc1)C(=O)CCC1CCCC1.Cl.Cl", "inhibition (%)": "78.0*"}
{"SMILES": "CN(C)[C@@H]1C(=O)C(C(N)=O)=C(O)[C@@]2(O)C(=O)C3=C(O)c4c(O)cccc4C[C@H]3C[C@@H]12", "inhibition (%)": "14.0"}
{"SMILES": "CCN(CC)c1ccc2cc(C(=O)O)c(=O)oc2c1", "inhibition (%)": "0.0"}
{"SMILES": "CCO.C[C@H]1c2cccc(O)c2C(O)=C2C(=O)[C@]3(O)C(O)=C(C(N)=O)C(=O)[C@@H](N(C)C)[C@@H]3[C@@H](O)[C@@H]21.C[C@H]1c2cccc(O)c2C(O)=C2C(=O)[C@]3(O)C(O)=C(C(N)=O)C(=O)[C@@H](N(C)C)[C@@H]3[C@@H](O)[C@@H]21.Cl.Cl.O", "inhibition (%)": "0.0"}
{"SMILES": "O=C(NCc1c(F)cc(F)cc1F)c1cn2c(c([O-])c1=O)C(=O)N1[C@H]3CC[C@H](C3)O[C@@H]1C2.[Na+]", "inhibition (%)": "73.8*"}
{"SMILES": "Cc1ccc(Cn2nc(CCCc3ccc(OC(C)(C)C(=O)O)cc3)[nH]c2=O)cc1", "inhibition (%)": "51.0"}
{"SMILES": "C[C@@H](Oc1cc(-c2cnn(C3CCNCC3)c2)cnc1N)c1c(Cl)ccc(F)c1Cl.Cl", "inhibition (%)": "56.7"}
{"SMILES": "CC(C)n1c(=O)n(C)c2cnc3cc(F)c(-c4ccc(OCCCN5CCCCC5)nc4)cc3c21", "inhibition (%)": "81.2*"}
{"SMILES": "CCCCCCCC(=O)N[C@H](CN1CCCC1)[C@H](O)c1ccc2c(c1)OCCO2", "inhibition (%)": "2.5"}
{"SMILES": "CCCCc1ccc(NC(=O)c2ccc([N+](=O)[O-])o2)cc1", "inhibition (%)": "0.0"}
{"SMILES": "NC(=O)[C@H]1CCN(c2ncnc(N)c2F)C[C@@H]1N1CCC[C@@H](Nc2cc(Cl)cc(C(F)(F)F)c2)C1=O", "inhibition (%)": "0.0"}
{"SMILES": "CCC(=O)c1c(O)cc(O)cc1O", "inhibition (%)": "0.0"}
{"SMILES": "CCN(CC)C(=O)c1ccc(-c2cc(NCCCN3CCCCC3)c3ccccc3n2)cc1.Cl.Cl", "inhibition (%)": "12.9"}
{"SMILES": "C/C(O)=C(\\C#N)C(=O)Nc1ccc(-c2ccccc2Cl)cc1", "inhibition (%)": "0.0"}
{"SMILES": "C#CCCCn1cnc(=N)c2[nH]c(Sc3ccc(C)cc3C)nc21", "inhibition (%)": "3.4"}
{"SMILES": "CC[C@]1(O)C[C@H]2CN(CCc3c([nH]c4ccccc34)[C@@](C(=O)OC)(c3cc4c(cc3OC)N(C)[C@H]3[C@@](O)(C(=O)OC)[C@H](OC(C)=O)[C@]5(CC)C=CCN6CC[C@]43[C@@H]65)C2)C1.O=S(=O)(O)O", "inhibition (%)": "2.6"}
{"SMILES": "COc1cc(/C=N/O)nc(-c2ccccn2)c1", "inhibition (%)": "0.0"}
{"SMILES": "O=C(C1CC1)N1CCN(Cn2sc3ccccc3c2=O)CC1", "inhibition (%)": "91.5*"}
{"SMILES": "O=c1c(O[C@@H]2O[C@H](CO[C@@H]3O[C@H](CO)[C@@H](O)[C@H](O)[C@H]3O)[C@@H](O)[C@H](O)[C@H]2O)c(-c2ccc(O)cc2)oc2cc(O)cc(O)c12", "inhibition (%)": "0.0"}
{"SMILES": "CC(=O)N1CCCC1(Cc1ccc(S(C)(=O)=O)cc1)C(=O)OCc1ccccc1", "inhibition (%)": "62.2"}
{"SMILES": "O=c1c(O[C@@H]2OC[C@H](O)[C@H](O)[C@H]2O)c(-c2ccc(O)c(O)c2)oc2cc(O)cc(O)c12", "inhibition (%)": "62.0"}
{"SMILES": "CC(=O)Oc1ccc(OC(C)=O)cc1", "inhibition (%)": "43.8"}
{"SMILES": "Cc1csc(=NC2CCCCC2)n1/N=C/c1ccc(O)c(O)c1O", "inhibition (%)": "24.2"}
{"SMILES": "Fc1ccc(-c2nc(-c3ccc4ccccc4c3F)[nH]c2-c2ccncc2)cc1", "inhibition (%)": "30.1"}
{"SMILES": "CCCC(CCC)C(=O)O", "inhibition (%)": "0.0"}
{"SMILES": "CC[C@H]1OC(=O)[C@H](C)[C@@H](O[C@H]2C[C@@](C)(OC)[C@@H](O)[C@H](C)O2)[C@H](C)[C@@H](O[C@@H]2O[C@H](C)C[C@H](N(C)C)[C@H]2O)[C@](C)(O)C[C@@H](C)CN[C@H](C)[C@@H](O)[C@]1(C)O", "inhibition (%)": "0.0"}
{"SMILES": "CN1CCC(Nc2ncc3ncnc(Nc4ccc(F)c(Cl)c4)c3n2)CC1", "inhibition (%)": "62.7"}
{"SMILES": "Cc1c(F)cccc1NC(=O)Nc1ccc(Cl)c(S(=O)(=O)[C@H]2CCCNC2)c1O", "inhibition (%)": "76.6*"}
{"SMILES": "COc1ccccc1Nc1nc(-c2sc(NC(C)=O)nc2C)cs1", "inhibition (%)": "21.9"}
{"SMILES": "COc1cc2c(cc1OC)CN(CCc1ccc(-n3nnc(-c4cc(OC)c(OC)cc4NC(=O)c4cc(=O)c5ccccc5o4)n3)cc1)CC2.CS(=O)(=O)O", "inhibition (%)": "0.0"}
{"SMILES": "Nc1ccc(-c2cccc(C(=O)Nc3cnc4nc(N5CCOCC5)oc4c3)n2)cn1", "inhibition (%)": "0.0"}
{"SMILES": "O=C(Nc1ccc(F)cc1F)N1CCC(N(CCc2ccc(Cl)cc2)C(=O)c2csc3ccccc23)CC1", "inhibition (%)": "0.0"}
{"SMILES": "COc1c(C)c(C(=O)c2ccc(N)c(C(=O)[O-])c2)n2ccccc12.[Na+]", "inhibition (%)": "20.1"}
{"SMILES": "C=CC(=O)Nc1cccc(-c2cccc3cnc(Nc4ccc(N5CCN(CCO)CC5)c(F)c4F)nc23)c1", "inhibition (%)": "59.1"}
{"SMILES": "CS(=O)(=O)O.O=C(NC1CCN(CCCCC2(C(=O)NCC(F)(F)F)c3ccccc3-c3ccccc32)CC1)c1ccccc1-c1ccc(C(F)(F)F)cc1", "inhibition (%)": "22.0"}
{"SMILES": "Cl.O=C1N(CC2CCCCN2)CCN1c1ccccc1", "inhibition (%)": "12.3"}
{"SMILES": "O=C(Nc1ncc(-c2cc(C(F)F)nn2-c2c(Cl)cccc2Cl)s1)C1CC1", "inhibition (%)": "73.2*"}
{"SMILES": "COC(=O)c1ccccc1S(=O)(=O)NC(=O)Nc1nc(C)cc(C)n1", "inhibition (%)": "0.0"}
{"SMILES": "OCCNCc1cc(Br)ccc1OCc1ccc(F)c(C(F)(F)F)c1", "inhibition (%)": "61.8"}
{"SMILES": "Cc1cccc(C#Cc2ccccc2)n1.Cl", "inhibition (%)": "31.2"}
{"SMILES": "Cc1cnc(NC(=O)Nc2cc(Br)c(C)cc2OC[C@@H]2CNCCO2)cn1", "inhibition (%)": "17.3"}
{"SMILES": "O=S(=O)(c1ccc2c(c1)OCCO2)N1CCN(c2nc(-c3cccnc3)nc3ccccc23)CC1", "inhibition (%)": "0.0"}
{"SMILES": "CCc1sc(N)nc1-c1ccc(OC)cc1", "inhibition (%)": "9.3"}
{"SMILES": "NS(=O)(=O)c1ccc(S(=O)(=O)Nc2cccc3c(Cl)c[nH]c23)cc1", "inhibition (%)": "58.4"}
{"SMILES": "Cl.NCc1ccc2c(c1)nc(CN1C(=O)C3(CC3)c3ccc(F)cc31)n2CCCC(F)(F)F", "inhibition (%)": "26.8"}
{"SMILES": "CN1CCC(COc2cnc(-c3cccc(Cn4nc(-c5cccc(C#N)c5)ccc4=O)c3)nc2)CC1", "inhibition (%)": "10.9"}
{"SMILES": "CCN1CCCC1CNC(=O)c1cc(S(=O)(=O)CC)ccc1OC.Cl", "inhibition (%)": "0.0"}
{"SMILES": "CN1C(=O)[C@@H](NC(=O)c2n[nH]c(Cc3ccccc3)n2)COc2cccnc21", "inhibition (%)": "0.0"}
{"SMILES": "CCCCN(Cc1ccccc1)C(=O)c1ccc(S(=O)(=O)Nc2ccccc2)cc1", "inhibition (%)": "0.0"}
{"SMILES": "CCN1C(=O)N(c2c(F)c(OC)cc(OC)c2F)Cc2cnc3[nH]c(CN4CCOCC4)cc3c21", "inhibition (%)": "69.1"}
{"SMILES": "CC(C)S(=O)(=O)Nc1ccc(F)c(C(=O)c2c[nH]c3ncc(-c4cccnc4)cc23)c1F", "inhibition (%)": "82.1*"}
{"SMILES": "Cl.Fc1ccc2c(CCNCc3cccc(OCC(F)(F)C(F)F)c3)c[nH]c2c1", "inhibition (%)": "43.0"}
{"SMILES": "CC1(C)Oc2cc(NS(C)(=O)=O)ccc2N(c2ccc(F)cc2)C1=O", "inhibition (%)": "0.0"}
{"SMILES": "O=C1NCCc2[nH]c(-c3ccnc(-c4cnc5ccccc5c4)c3)cc21", "inhibition (%)": "1.5"}
{"SMILES": "Cn1cc(-c2c[nH]c3ncnc(N4CCOCC4)c23)cn1", "inhibition (%)": "62.4"}
{"SMILES": "COc1ccc2nc([S@@](=O)Cc3ncc(C)c(OC)c3C)[n-]c2c1.[Na+]", "inhibition (%)": "0.0"}
{"SMILES": "CC(C)c1nc(N(C)S(C)(=O)=O)nc(-c2ccc(F)cc2)c1/C=C/[C@@H](O)C[C@@H](O)CC(=O)O", "inhibition (%)": "0.0"}
{"SMILES": "C#CCOc1ccc(Nc2nc(Nc3ccc(C)c(S(N)(=O)=O)c3)ncc2F)cc1", "inhibition (%)": "44.5"}
{"SMILES": "CC(=O)Nc1cc(Oc2ccc3c(c2)CCN3C(=O)Nc2ccc(CN3CCN(C)CC3)c(C(F)(F)F)c2)ncn1", "inhibition (%)": "75.7*"}
{"SMILES": "COc1ccc2cc([C@H](C)C(=O)O)ccc2c1", "inhibition (%)": "0.0"}
{"SMILES": "COc1ccc2c(c1)c(CC(=O)Oc1ccc(NC(C)=O)cc1)c(C)n2C(=O)c1ccc(Cl)cc1", "inhibition (%)": "0.0"}

For reference, 6 entries again:

SMILES | inhibition (%)
CN(C)CCN(Cc1ccc(-c2ccc(CNCCc3ccccc3)cc2)cc1)C(=O)CCC1CCCC1.Cl.Cl | 78.0*
Cn1cc(-c2c[nH]c3ncnc(N4CCOCC4)c23)cn1 | 62.4
O=c1c(O[C@@H]2OC[C@H](O)[C@H](O)[C@H]2O)c(-c2ccc(O)c(O)c2)oc2cc(O)cc(O)c12 | 62.0
CC(C)c1nc(N(C)S(C)(=O)=O)nc(-c2ccc(F)cc2)c1/C=C/[C@@H](O)C[C@@H](O)CC(=O)O | 0.0
CN1CCC(Nc2ncc3ncnc(Nc4ccc(F)c(Cl)c4)c3n2)CC1 | 62.7
Cc1csc(=NC2CCCCC2)n1/N=C/c1ccc(O)c(O)c1O | 24.2